# Membrane permeability of cyclic peptides

Source: CycPeptMPDB (Li et al. 2023), which took these values from Townsend et al. 2020, doi:10.26434/chemrxiv.13335941.v1.

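Lipid, pH, incubation time, direction and concentration are not recorded in the data file. The list need not hold all peptides of the study. Entries at the database's floor value (log10 P of -10) are not listed.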

PAMPA measures passive passage through an artificial lipid membrane. Values are log10 P with P in cm/s, so -5 is more permeable than -7.

SMILES	PAMPA (log10 cm/s)
CC(C)C[C@@H]1C(=O)N[C@@H](Cc2ccccc2)CC(=O)N2CCC[C@H]2C(=O)N(C)[C@@H](CC(C)C)C(=O)N[C@@H](Cc2ccccc2)C(=O)N2CCC[C@@H]2C(=O)N[C@H](C)C(=O)N1C	-5.04
CCCN1CC(=O)N[C@@H](CC(C)C)C(=O)N[C@@H](CC(C)C)C(=O)N2CCC[C@@H]2C(=O)N(Cc2ccccc2)CC(=O)N[C@@H](Cc2ccccc2)C(=O)N2CCC[C@@H]2C1=O	-5.75
CC(C)C[C@@H]1C(=O)N2CCC[C@H]2C(=O)N(C)[C@H](CC(C)C)C(=O)N[C@@H](Cc2ccccc2)C(=O)N2CCC[C@@H]2C(=O)N(C)[C@H](C)C(=O)N(Cc2ccccc2)CC(=O)N1C	-5.75
CC(C)C[C@@H]1NC(=O)[C@@H]2CCCN2C(=O)[C@@H](CC(C)C)N(C)C(=O)[C@H](CC(C)C)NC(=O)[C@@H](C)N(C)C(=O)[C@@H]2CCCN2C(=O)[C@H](Cc2ccccc2)NC1=O	-5.70
CC(C)C[C@@H]1NC(=O)[C@@H](CC(C)C)NC(=O)[C@@H](C)N(C)C(=O)[C@H](Cc2ccccc2)NC(=O)[C@@H](CC(C)C)N(C)C(=O)[C@@H]2CCCN2C1=O	-5.16
CC(C)C[C@H]1NC(=O)C[C@H](Cc2ccccc2)NC(=O)[C@@H]2CCCN2C(=O)[C@H](Cc2ccccc2)NC(=O)CN(Cc2ccccc2)C(=O)[C@@H]2CCCN2C(=O)[C@H](CC(C)C)N(C)C1=O	-5.97
CC(C)C[C@@H]1NC(=O)[C@H]2CCCN2C(=O)[C@H](CC(C)C)N(C)C(=O)[C@H](CC(C)C)N(C)C(=O)[C@@H](C)NC(=O)[C@@H]2CCCN2C(=O)[C@H](Cc2ccccc2)NC1=O	-6.18
CCCN1CC(=O)N(C)[C@@H](CC(C)C)C(=O)N[C@H](CC(C)C)C(=O)N2CCC[C@@H]2C(=O)N[C@@H](CC(C)C)C(=O)N[C@@H](Cc2ccccc2)C(=O)N2CCC[C@H]2C1=O	-6.77
CC(C)C[C@H]1NC(=O)[C@@H](C)NC(=O)[C@H](Cc2ccccc2)NC(=O)CN(Cc2ccccc2)C(=O)[C@@H]2CCCN2C(=O)CN(Cc2ccccc2)C1=O	-6.22
CC(C)C[C@@H]1NC(=O)[C@H]2CCCN2C(=O)[C@H](CC(C)C)NC(=O)[C@@H](CC(C)C)NC(=O)C[C@H](Cc2ccccc2)NC(=O)[C@H](Cc2ccccc2)NC1=O	-4.80
CC(C)C[C@@H]1C(=O)N[C@@H](Cc2ccccc2)C(=O)N2CCC[C@H]2C(=O)N(C)[C@H](C)C(=O)N[C@H](CC(C)C)C(=O)N(C)[C@@H](CC(C)C)C(=O)N2CCC[C@H]2C(=O)N1C	-5.59
CCCN1CC(=O)N(Cc2ccccc2)CC(=O)N[C@@H](CC(C)C)C(=O)N2CCC[C@@H]2C(=O)N(C)[C@@H](CC(C)C)C(=O)N[C@@H](Cc2ccccc2)C(=O)N2CCC[C@H]2C1=O	-5.26
CC(C)C[C@@H]1C(=O)N2CCC[C@H]2C(=O)N(Cc2ccccc2)CC(=O)N[C@@H](Cc2ccccc2)C(=O)N2CCC[C@H]2C(=O)N[C@@H](C)C(=O)N(C)[C@@H](CC(C)C)C(=O)N1C	-5.61
CC(C)C[C@@H]1C(=O)N[C@@H](Cc2ccccc2)C(=O)N2CCC[C@@H]2C(=O)N[C@@H](Cc2ccccc2)CC(=O)N(C)[C@@H](CC(C)C)C(=O)N(C)[C@H](CC(C)C)C(=O)N2CCC[C@@H]2C(=O)N1C	-5.46
CC(C)C[C@@H]1C(=O)N(Cc2ccccc2)CC(=O)N2CCC[C@@H]2C(=O)N(C)[C@@H](CC(C)C)C(=O)N[C@@H](Cc2ccccc2)C(=O)N2CCC[C@@H]2C(=O)N[C@H](C)C(=O)N1C	-5.66
CC(C)C[C@@H]1NC(=O)[C@H](C)NC(=O)[C@H]2CCCN2C(=O)[C@H](Cc2ccccc2)NC(=O)[C@H](CC(C)C)NC(=O)[C@@H]2CCCN2C(=O)[C@@H](CC(C)C)NC1=O	-6.26
CCCN1CC(=O)N[C@H](CC(C)C)C(=O)N[C@@H](CC(C)C)C(=O)N2CCC[C@H]2C(=O)N[C@@H](CC(C)C)C(=O)N[C@@H](Cc2ccccc2)C1=O	-4.94
CCCN1CC(=O)N[C@H](CC(C)C)C(=O)N[C@H](CC(C)C)C(=O)N2CCC[C@H]2C(=O)N[C@H](CC(C)C)C(=O)N[C@@H](Cc2ccccc2)C(=O)N2CCC[C@@H]2C1=O	-6.56
CC(C)C[C@@H]1NC(=O)[C@@H](C)NC(=O)[C@H](Cc2ccccc2)NC(=O)[C@@H](CC(C)C)N(C)C(=O)[C@@H]2CCCN2C(=O)[C@H](CC(C)C)NC1=O	-6.33
CC(C)C[C@@H]1C(=O)N[C@@H](Cc2ccccc2)C(=O)N[C@@H](Cc2ccccc2)CC(=O)N(C)[C@@H](CC(C)C)C(=O)N[C@H](CC(C)C)C(=O)N2CCC[C@H]2C(=O)N1C	-5.16
CC(C)C[C@H]1NC(=O)[C@H](C)NC(=O)[C@H]2CCCN2C(=O)[C@H](Cc2ccccc2)NC(=O)[C@H](CC(C)C)N(C)C(=O)[C@H]2CCCN2C(=O)[C@H](CC(C)C)N(C)C1=O	-5.73
CC(C)C[C@@H]1NC(=O)[C@H](C)NC(=O)[C@H]2CCCN2C(=O)[C@H](Cc2ccccc2)NC(=O)CN(Cc2ccccc2)C(=O)[C@H]2CCCN2C(=O)CN(Cc2ccccc2)C1=O	-6.22
CCCN1CC(=O)N[C@H](CC(C)C)C(=O)N(Cc2ccccc2)CC(=O)N2CCC[C@@H]2C(=O)N(C)[C@H](CC(C)C)C(=O)N[C@@H](Cc2ccccc2)C(=O)N2CCC[C@@H]2C1=O	-5.41
CC(C)C[C@@H]1NC(=O)[C@@H]2CCCN2C(=O)[C@H](CC(C)C)NC(=O)[C@@H](CC(C)C)NC(=O)[C@@H](C)NC(=O)[C@H](Cc2ccccc2)NC1=O	-7.26

3 of these entries, quoted again:

SMILES	PAMPA (log10 cm/s)
CCCN1CC(=O)N(Cc2ccccc2)CC(=O)N[C@@H](CC(C)C)C(=O)N2CCC[C@@H]2C(=O)N(C)[C@@H](CC(C)C)C(=O)N[C@@H](Cc2ccccc2)C(=O)N2CCC[C@H]2C1=O	-5.26
CC(C)C[C@@H]1NC(=O)[C@@H]2CCCN2C(=O)[C@H](CC(C)C)NC(=O)[C@@H](CC(C)C)NC(=O)[C@@H](C)NC(=O)[C@H](Cc2ccccc2)NC1=O	-7.26
CCCN1CC(=O)N[C@@H](CC(C)C)C(=O)N[C@@H](CC(C)C)C(=O)N2CCC[C@@H]2C(=O)N(Cc2ccccc2)CC(=O)N[C@@H](Cc2ccccc2)C(=O)N2CCC[C@@H]2C1=O	-5.75